Assay results as given in patent EP1931657B1, “NOVEL HIGH AFFINITY QUINOLINE-BASED KINASE LIGANDS” (Merck Sharp & Dohme Corp., priority 2005, dated 2007).

Biological target: CDK-2 (Homo sapiens, UniProt P24941)
Assay: CDK-2 inhibition, fluorescence polarization displacement assay
Conditions: inhibitory effectiveness toward CDK-2

| SMILES | IC50 | IC50 (tested form: free acid) |
| --- | --- | --- |
| COC[C@H](Cc1ccc(O)cc1)NC(=O)c1cc(C(=O)O)c2cc(C#CCCO)ccc2n1 | > 40 µM | – |
| O=C(N[C@@H](Cc1ccc(O)cc1)c1nnn[nH]1)c1cc(C(=O)O)c2cc(-c3cccc(C(F)(F)F)c3)ccc2n1 | – | > 40 µM |

Next, values leading:

| IC50 | IC50 (tested form: free acid) | SMILES |
| --- | --- | --- |
| > 40 µM | – | COC[C@H](Cc1ccc(O)cc1)NC(=O)c1cc(C(=O)O)c2cc(-c3cccc(CN4CCC(O)C4)c3)ccc2n1 (some centres unmarked) |
| 1 to 40 µM | – | COC(=O)C(NC(=O)c1cc(C(=O)O)c2cc(-c3cccc(C(F)(F)F)c3)ccc2n1)c1ccc(O)cc1 (centres unmarked) |
| < 1 µM | – | CON=C[C@H](Cc1ccc(O)cc1)NC(=O)c1cc(C(=O)O)c2cc(-c3cccc(C(F)(F)F)c3)ccc2n1 |
